Key:
Assay type in all cases: biochemical
uPA = uPA (Homo sapiens, UniProt P00749); design: purchased Sigma-Aldrich; conditions: apparent second order rate constant, 250 μM substrate
tPA = tPA (Homo sapiens, UniProt P00750); assay: Selectivity: tPA inhibition, chromogenic substrate S-2288; conditions: for inhibition at 250 µM: read-out: % inhibition at given concentration, tPA; for selectivity ratio / selectivity index (IC50 tPA/IC50 uPA), figures between brackets: tPA vs uPA
plasmin = target: T1, plasmin (Homo sapiens, UniProt P00747); assay: Selectivity: plasmin inhibition, chromogenic substrate S-2366; conditions: for inhibition at 250 µM: read-out: % inhibition at given concentration, Plasmin; for selectivity ratio / selectivity index (IC50 plasmin/IC50 uPA), figures between brackets: plasmin vs uPA
T1 construct: uPA mediates the proteolytic cleavage of plasminogen to give plasmin

thrombin = thrombin (Homo sapiens, UniProt P00734); assay: Selectivity: thrombin inhibition, chromogenic substrate S-2366; conditions: for inhibition at 250 µM: read-out: % inhibition at given concentration, Thrombin; for selectivity ratio / selectivity index (IC50 thrombin/IC50 uPA), figures between brackets: thrombin vs uPA
FXa = FXa (Homo sapiens, UniProt P00742); assay: Selectivity: FXa inhibition, chromogenic substrate S-2772; conditions: at 250 μM; read-out: % inhibition at given concentration, FXa

Row | Molecule | kapp (M^−1 · s^−1) uPA (uPA) | inhibition at 250 µM (tPA) | inhibition at 250 µM (plasmin) | inhibition at 250 µM (thrombin) | inhibition at 250 µM (FXa) | further results
1 | Cc1ccccc1S(=O)(=O)NC(Cc1ccc(NC(=N)N)cc1)P(=O)(Oc1ccccc1)Oc1ccccc1 (stereo not shown) [Compound 7d, Diphenyl 1-(o-toluenesulfonylamino)-2-(4-guanidinophenyl)-ethanephosphonate] | 19000 M⁻¹ s⁻¹ | – | – | – | – | –
2 | CC(C)c1ccc(C(C)C)c(S(=O)(=O)NC(Cc2ccc(NC(=N)N)cc2)P(=O)(Oc2ccccc2)Oc2ccccc2)c1C(C)C (stereo not shown) [Compound 7f, Diphenyl 1-(2,3,6-tri-isopropylbenzenesulfonyl)amino-2-(4-guanidinophenyl)-ethanephosphonate] | 1600 M⁻¹ s⁻¹ | – | – | – | – | –
3 | CCC(NC(=O)OCc1ccccc1)(c1ccc(C(=N)N)cc1)P(=O)(Oc1ccccc1)Oc1ccccc1 (stereo not shown) [Compound 8c, Diphenyl 1-(N-benzyloxycarbonylamino)-1-(4-amidinophenyl)propanephosphonate] | 140 M⁻¹ s⁻¹ | – | – | – | – | –
4 | N=C(N)Nc1ccc(CC(N)P(=O)(Oc2ccccc2)Oc2ccccc2)cc1 (stereo not shown) [Compound 34d, Diphenyl 1-amino-2-(4-guanidinophenyl)ethylphosphonate] | – | 32% | 31% | 41% | 11% | –
5 | COC(=O)NC(Cc1ccc(NC(=N)N)cc1)P(=O)(Oc1ccccc1)Oc1ccccc1 (stereo not shown) [Compound 35a, Methyl 1-(diphenoxyphosphoryl)-2-(4-guanidinophenyl)ethylcarbamate] | – | – | – | – | 57% | selectivity ratio / selectivity index (IC50 tPA/IC50 uPA), figures between brackets (tPA): (7419); selectivity ratio / selectivity index (IC50 plasmin/IC50 uPA), figures between brackets (plasmin): (4129); selectivity ratio / selectivity index (IC50 thrombin/IC50 uPA), figures between brackets (thrombin): (5355)
6 | CCOC(=O)NC(Cc1ccc(NC(=N)N)cc1)P(=O)(Oc1ccccc1)Oc1ccccc1 (stereo not shown) [Compound 35c, Ethyl 1-(diphenoxyphosphoryl)-2-(4-guanidinophenyl)ethylcarbamate] | – | – | – | – | 62% | selectivity ratio / selectivity index (IC50 tPA/IC50 uPA), figures between brackets (tPA): (7125); selectivity ratio / selectivity index (IC50 plasmin/IC50 uPA), figures between brackets (plasmin): (2000); selectivity ratio / selectivity index (IC50 thrombin/IC50 uPA), figures between brackets (thrombin): (475)
7 | CNC(=O)NC(Cc1ccc(NC(=N)N)cc1)P(=O)(Oc1ccccc1)Oc1ccccc1 (stereo not shown) [Compound 39a, Diphenyl 2-(4-guanidinophenyl)-1-(3-methylureido)ethylphosphonate] | – | 42% | 15% | 42% | 27% | –
8 | N=C(N)Nc1ccc(CC(NC(=O)NCc2ccccc2)P(=O)(Oc2ccccc2)Oc2ccccc2)cc1 (stereo not shown) [Compound 39b, Diphenyl 1-(3-benzylureido)-2-(4-guanidinophenyl)ethylphosphonate] | – | 50% | 34% | 46% | 36% | –
9 | CC(=O)NC(Cc1ccc(NC(=N)N)cc1)P(=O)(Oc1ccccc1)Oc1ccccc1 (stereo not shown) [Compound 41, Diphenyl 1-acetamido-2-(4-guanidinophenyl)ethylphosphonate] | – | – | – | – | 37% | –
10 | Diphenyl 1-(naphthalenesulfonylamino)-2-(4-guanidinophenyl)-ethanephosphonate [Compound 7e] | 7300 M⁻¹ s⁻¹ | – | – | – | – | –
